Test system: Fa2N-4 Cells and Primary Human Hepatocytes
Experiment: Comparison of toxicity in Fa2N-4 cells and primary human hepatocytes

Q: Hyperforin was tested. Which “Cellular Response (Same / Different) in Fa2N-4 cells versus primary human hepatocytes” value did it give?
A: Different

— patent publication US20070104696A1, “Use of cell lines to produce active therapeutic proteins” (Multicell Technologies, Inc., priority 2003, published 2007)
